Reference: patent publication US10322118B2, “Compounds and methods for inhibiting Cif virulence factor” (priority 2012, dated 2019)

System: thyroid hormone receptor
Assay: Thyroid hormone activity assay in GH3.TRE-Luc cells
Assay type: cell-based
Details: screen of compounds with different R5 groups

SMILES: CCC(=O)Nc1cc(Br)c(Oc2ccc(O)c(C(C)C)c2)c(Br)c1
- thyroid hormone activity: lowest thyroid hormone activity
